This note sets out measurements from patent publication US20250236878A1 (priority 2019, published 2025).

For this test, the system named is corn plants (hybrids DKC 60-88 RIB, DKC 58-08 RIB and DKC 64-35 RIB).

B1: ACC deaminase: 1-aminocyclopropane-1-carboxylate deaminase polypeptide with two substitutions relative to wild type (protein, listed as Bacillus thuringiensis)
chain: MNLAKFPRKKYTESYTPIEKLNNFSEALGGPTIYFKRDDLLGLTAGGNKTRKLEFLVADAQEKGADTLITAGGIQSNHCRLTLAAAVKEKMKCILVLEEGLEPEEKRDFNGNYFLYHLLGAENVIVVPNGADLMEEMNKVAKEVSEKGSTPYVIPVGGSNPTGAMGYVACAQEIMAQSFEQGIDFSSVVCVSGSGGMHAGLITGFSGTQSHIPVIGINVSRGKAEQEEKVAKLVDETSAHVGIPNFISRDAVTCFDEYVGPGYALPTPEMVEAVQLLAKTEGILLDPVYEGKAVAGLIDLIRKGKFNKEDNILFVHLGGSPALYANTSLFA
Take B1: under “foliar V4-V7, 12 locations”, the “average yield increase over control” value is recorded as “+1.06 Bu/Ac”.

B2: ACC Deaminase (SEQ ID NO: 730) (Composition 3) (protein, listed as Bacillus thuringiensis)
chain: MNLAKFPRKKYTESYTPIEKLNNFSEALGGPTIYFKRDDLLGLTAGGNKTRKLEFLVADAQEKGADTLITAGGIQSNHCRLTLAAAVKEKMKCILVLEEGLEPEEKRDFNGNYFLYHLLGAENVIVVPNGADLMEEMNKVAKEVSEKGSTPYVIPVGGSNPTGAMGYVACAQEIMAQSFEQGIDFSSVVCVSGSGGMHAGLITGFSGTQSHIPVIGINVSRGKAEQEEKVAKLVDETSAHVGIPNFISRDAVTCFDEYVGPGYALPTPEMVEAVQLLAKTEGILLDPVYEGKAVAGLIDLIRKGKFNKEDNILFVHLGGSPALYANTSLFA
B2: the “Average Bu/Ac Increase compared to Control” value (foliar spray V4-V7, 12 locations, vs surfactant control) is reported as “+1.06 Bu/Ac”. In addition, the “Average Total Yield Bu/Ac (12 locations)” value (foliar spray V4-V7, Bt.4Q7Flg22 4.0 Fl. oz/Ac, ACC Deaminase 8.0 Fl. oz/Ac, surfactant control = 225.51) came to 226.57 Bu/Ac.
